Measurements: patent publication US20060110401A1, “Mixture of peptides from c and ns3 proteins of the hepatitis c virus and applications thereof” (priority 2002, published 2006)
“And” between values parts separate entries of the source, which are not always exact repeats. Equal values may be shown once. Marks after values point to notes of the source that are not given here.

Tested on: T lymphocytes derived from PBMCs from patients chronically infected with HCV
Format: cell-based, human

In the case of `CC[C@H](C)[C@H](NC(=O)[C@H](Cc1c[nH]cn1)NC(=O)[C@@H](NC(=O)[C@H](CC(C)C)NC(=O)CNC(=O)[C@@H](NC(=O)[C@H](Cc1ccccc1)NC(=O)[C@@H](NC(=O)CNC(=O)[C@H](CCC(=O)O)NC(=O)[C@H](Cc1c[nH]c2ccccc12)NC(=O)[C@H](Cc1ccccc1)NC(=O)[C@H](CCC(=O)O)NC(=O)[C@H](CC(C)C)NC(=O)[C@H](Cc1c[nH]cn1)NC(=O)[C@H](CC(=O)O)NC(=O)[C@@H](N)CCC(N)=O)C(C)C)[C@@H](C)O)[C@@H](C)O)C(=O)N[C@@H](CC(=O)O)C(=O)N[C@@H](C)C(=O)N[C@@H](Cc1c[nH]cn1)C(=O)N[C@@H](Cc1ccccc1)C(=O)N[C@@H](CC(C)C)C(=O)N[C@@H](CO)C(=O)N[C@@H](CCC(N)=O)C(=O)N[C@H](C(=O)N[C@@H](CCCCN)C(=O)N[C@@H](CCC(N)=O)C(=O)N[C@@H](CO)C(=O)NCC(=O)N[C@@H](CCC(=O)O)C(=O)N[C@@H](CC(N)=O)C(=O)N[C@@H](CC(C)C)C(=O)O)[C@@H](C)O` [29N 1552-1583], the IL4 is reported as 57 pg/mL and 44 pg/mL and the IL10 is reported as 31* pg/ml and 38 — pg/ml.
